Counter-ions that a name gives are not always drawn.
Tested on: human
Test: Duration of analgesic effect after intramuscular injection in humans
Format: in vivo

Oc1ccc2c3c1O[C@H]1[C@@H](O)CC[C@@]4(O)[C@@H](C2)N(CC2CCC2)CC[C@]314 [nalbuphine hydrochloride, reference compound]
50 % analgesic effect (human, 0.8 mmole/kg): 2.5 h
10% analgesic effect (humans): 5.0 h
20% analgesic effect (humans): 4.4 h

Source: patent EP0615756B1 (priority 1993, dated 1994)
